From ChEMBL document CHEMBL4118244, “Design, synthesis and biological evaluation of benzofuran appended benzothiazepine derivatives as inhibitors of butyrylcholinesterase and antimicrobial agents” (Bioorg Med Chem, 2018)

Columns and labels:
Format in all cases: functional
Escherichia coli = assay: Antibacterial activity against Escherichia coli ATCC 10536
Salmonella paratyphi = assay: Antibacterial activity against Salmonella paratyphi A serotype ATCC 5702; conditions: Salmonella enterica subsp. enterica serovar Paratyphi A
[1] = tested on: Staphylococcus epidermidis; assay: Antibacterial activity against Staphylococcus epidermidis ATCC 12228
Proteus vulgaris = assay: Antibacterial activity against Proteus vulgaris PTCC 1182
Bacillus spizizenii = assay: Antibacterial activity against Bacillus subtilis ATCC 6633
Staphylococcus aureus = assay: Antibacterial activity against Staphylococcus aureus ATCC 29737

Measured: MIC

GENTAMICIN
0.5 µg/mL: all assays above
